In patent publication US20100016547A1, “Glycosilated Peptide and Medicine Comprising It as an Effective Ingredient” (priority 2005, published 2010) one finds EC50 and IC50 data, which are given here for one molecule.

By UniProt entry, the sequences of proteins in these tests, tags left out. Residues count along the entry.
UniProt P43220, 24-463, species assumed: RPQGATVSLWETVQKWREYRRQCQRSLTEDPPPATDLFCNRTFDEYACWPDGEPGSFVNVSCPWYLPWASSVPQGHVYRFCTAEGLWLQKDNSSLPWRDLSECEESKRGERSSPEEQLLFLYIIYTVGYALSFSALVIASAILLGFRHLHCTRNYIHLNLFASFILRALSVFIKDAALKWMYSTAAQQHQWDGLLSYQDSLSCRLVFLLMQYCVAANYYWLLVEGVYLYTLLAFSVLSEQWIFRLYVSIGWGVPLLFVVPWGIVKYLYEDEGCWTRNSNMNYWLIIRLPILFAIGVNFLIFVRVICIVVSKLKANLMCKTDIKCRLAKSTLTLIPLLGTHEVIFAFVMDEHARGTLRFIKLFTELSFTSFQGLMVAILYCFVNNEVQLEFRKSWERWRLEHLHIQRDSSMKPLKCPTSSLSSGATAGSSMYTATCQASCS

Test [1] deals with T1, GLP-1 receptor (Homo sapiens, UniProt P43220). As to the kind of experiment: Assay for production of cAMP.
The target in test [2] is T1, GLP-1 receptor.

A word on the EC50: it is the concentration needed to bring the measured effect to its halfway point. Higher therefore signals a need for much substance. A word on the IC50: it is the concentration at which inhibition is half-maximal. Low values mean inhibition by little substance, high ones a need for much substance. For `CC[C@H](C)[C@H](NC(=O)[C@H](Cc1ccccc1)NC(=O)[C@H](CCC(=O)O)NC(=O)[C@H](CCCCN)NC(=O)[C@H](C)NC(=O)[C@H](C)NC(=O)[C@H](CCC(N)=O)NC(=O)CNC(=O)[C@H](CCC(=O)O)NC(=O)[C@H](CC(C)C)NC(=O)[C@H](Cc1ccc(O)cc1)NC(=O)[C@H](CO)NC(=O)[C@H](CO)NC(=O)[C@@H](NC(=O)[C@H](CC(=O)O)NC(=O)[C@H](CO)NC(=O)[C@@H](NC(=O)[C@H](Cc1ccccc1)NC(=O)[C@@H](NC(=O)CNC(=O)[C@H](CCC(=O)O)NC(=O)[C@H](C)NC(=O)[C@@H](N)Cc1c[nH]cn1)[C@@H](C)O)[C@@H](C)O)C(C)C)C(=O)N[C@@H](C)C(=O)N[C@@H](Cc1c[nH]c2ccccc12)C(=O)N[C@@H](CC(C)C)C(=O)N[C@H](C(=O)N[C@@H](CCCCN)C(=O)NCC(=O)N[C@@H](CCCNC(=N)N)C(=O)N[C@@H](CO)C(=O)NCC(=O)N[C@@H](CO)C(=O)NCC(=O)N[C@@H](CO)C(=O)NCC(=O)N[C@@H](CC(=O)N[C@@H]1O[C@H](CO)[C@@H](O[C@@H]2O[C@H](CO[C@]3(C(=O)O)C[C@H](O)[C@@H](NC(C)=O)[C@H]([C@H](O)[C@H](O)CO)O3)[C@H](O)[C@H](O)[C@H]2O)[C@H](O)[C@H]1NC(C)=O)C(N)=O)C(C)C` [GLSGSGS43NS6], the concentration for a half-maximal effect (EC50) in test [1] was found to be 0.11 nM. Besides, the 50% inhibitory concentration (IC50) in test [2] came out at 1 nM.
